Biological target: LPA2 (Homo sapiens, UniProt Q9HBW0)
Test: LPA receptor-mediated Ca2+ mobilization assay, LPA2 (RH7777 cells stably expressing LPA2)
Type: cell-based
Set-up: expressed in transfected cells
Conditions: Ca2+ transients
Description: Similarity searches were performed separately using each fingerprint to quantitate similarity. Hits meeting the 80% similarity threshold from each search were ranked based on the Tanimoto coefficient measure of similarity to a target molecule NSC12404, and the top 75 unique hits from each fingerprint search were selected for further analysis. […] This selected a diverse subset of 27 compounds for biological evaluation by choosing the middle compounds in each cluster. These 27 compounds were tested in Ca^2+ mobilization assays at a concentration of 10 μM using stable cell lines individually expressing LPA2 and also in vector-transfected control cells. Hits activating LPA2 were further tested using cells expressing the other established and putative LPA GPCRs. […]
The cells were loaded with Fura-2-acetoxymethyl esther (Fura-2/AM) in Krebs buffer containing 0.01% pluronic acid for 30 min and rinsed with Krebs buffer before measuring Ca^2+ mobilization. The ratio of peak emissions at 510 nm after 2 min of ligand addition was determined for excitation wavelengths of 340 nm/380 nm. […] The half maximally effective concentration (EC50), and inhibitory constant (Ki) values were calculated by fitting a sigmoid function to dose-response data points using KaleidaGraph software (version 4.1, Synergy Software; […]). […]

The chains behind the UniProt entries cited, without tags or fusion partners.
UniProt Q9HBW0, whole entry: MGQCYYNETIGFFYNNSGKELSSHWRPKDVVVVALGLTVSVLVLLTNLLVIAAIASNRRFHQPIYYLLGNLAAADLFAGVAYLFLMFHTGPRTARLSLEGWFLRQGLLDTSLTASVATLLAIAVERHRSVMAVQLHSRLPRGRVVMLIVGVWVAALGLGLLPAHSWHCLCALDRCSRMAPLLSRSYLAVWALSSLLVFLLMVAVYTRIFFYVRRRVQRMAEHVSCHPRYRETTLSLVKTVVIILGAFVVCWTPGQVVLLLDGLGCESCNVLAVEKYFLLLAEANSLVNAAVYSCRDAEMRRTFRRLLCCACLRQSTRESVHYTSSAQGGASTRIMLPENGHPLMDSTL

## O=C(O)c1ccccc1S(=O)(=O)NCCCN1C(=O)c2cccc3cccc(c23)C1=O [Compound 5a, 2-[3-(1,3-Dioxo-1H,3H-benzo[de]isoquinolin-2-yl)propylsulfamoyl]benzoic acid]
  Emax: 100%
